Reported melting point values for industrial, environmental and drug-like chemicals

Source: data files of OPERA 2.9 (Mansouri et al.), github.com/kmansouri/OPERA.

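The OPERA project collected these measurements from public sources as training and test data for property models. The files give a single number for a compound and property, which may rest on several reports. How each value was measured is not recorded, so precision varies. The measured form (salt, isomer or mixture) is not always the one drawn. Unmarked limits or estimates from the upstream databases cannot be ruled out.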

The melting point is given in degrees Celsius.

structure (SMILES),MP (°C)
CC(Cl)C(=O)NCC(F)(F)F (centres undefined),43
N#Cc1ccc(C(F)(F)F)cc1Cl,82.5
ClCc1csc(-c2ccco2)n1,77
CCC(=O)C(c1ccccc1)(c1ccccc1)C(C)CN(C)C.Cl (centres undefined),232
Clc1ccc(Cl)c(-c2c(Cl)c(Cl)cc(Cl)c2Cl)c1,100
O=[N+]([O-])c1ccc(N2CCNCC2)cn1,148
CC(=O)Nc1ccc(-c2ccccc2)cc1,172
CCNC(C)Cc1ccc(OC)cc1 (centres undefined),-10.33
Cc1ccc(OCCN(CCCl)CCOc2ccc(C)cc2)cc1.Cl,155
CC(Br)C(=O)c1ccc(Cl)cc1 (centres undefined),69
c1cnc(N2CCNCC2)cn1,49
CCOP(=O)(OCC)C(C)NC(=O)N(CCCl)N=O (centres undefined),85
CCN1CCN(c2ccccc2N)CC1,41
CCOP(=S)(OCC)N1C(=O)c2ccccc2C1=O,82
CC(C)=CCC1(C(C)C)C(=O)NC(=O)NC1=O,131
O=C1NC(=O)C2(CCCC2)C(=O)N1,272
O=c1cc(CCl)nc2sccn12,181
CC(=O)c1ccc(O)c(CCl)c1,170
Cc1ccc(S(=O)(=O)NCCCCCC(=O)O)cc1.OCCN(CCO)CCO,56.9
Cc1nc(NC(=O)CCl)sc1C,145
O=C([O-])C(F)(F)OC(F)(F)C(F)(F)OC(F)(F)C(F)(F)F.[NH4+],95.8
C[C@]12CC[C@H](O)C[C@H]1CC[C@@H]1[C@@H]2C[C@@H](O)[C@]2(C)[C@@H](C3=CC(=O)OC3)[C@@H](O)C[C@]12O,157
NCc1ccc(Cl)nc1,29.5
O=c1c2ccccc2[nH]c(=S)n1-c1ccc(Cl)cc1,337
C[C@@]12CC[C@@H]3[C@H](CCC4CCCC[C@]43C)[C@H]1CCC2=O (stereo not given in full),119
Cn1cnnc1C1CCNCC1,182
CCCC[C@H]1C(=O)O[C@H](C)[C@H](NC(=O)c2cccc(NC=O)c2O)C(=O)O[C@@H](C)[C@@H]1OC(=O)CC(C)C,170
O=C(CCl)Nc1ccc(O)cc1,146
Clc1ccc(Cl)c(C(Cl)(Cl)Cl)n1,47.5
CC(C)(N)Cc1ccc(Cl)cc1.Cl,52.5
CCCCCCCC/C=C\CCCCCCCC(=O)N(C)CC(=O)[O-].CCCCCCCC/C=C\CCCCCCCC(=O)N(C)CC(=O)[O-].[Ca+2],66.5
O=C(CCl)NCCc1cccs1,17
C=CCC1(C)C(O)=NC(=O)N=C1O,167
COc1coc(CSP(=O)(OC)OC)cc1=O,90.5
Clc1ccccc1-c1cc(Cl)c(Cl)c(Cl)c1Cl,100
CCN1CCN(Cc2ccc(N)cc2)CC1,73
C=CCC1(CC)C(=O)NC(=O)NC1=O,161
C[N+](C)(C)Cc1ccccc1.[I-],182
Clc1ccc(-c2ccc(Cl)c(Cl)c2)c(Cl)c1,128
Cc1cc(C(=O)CCl)c(C)s1,55
CC(=O)CCc1ccc2c(c1)OCO2,53

The first 4 entries again:

structure (SMILES),MP (°C)
CC(Cl)C(=O)NCC(F)(F)F (centres undefined),43
N#Cc1ccc(C(F)(F)F)cc1Cl,82.5
ClCc1csc(-c2ccco2)n1,77
CCC(=O)C(c1ccccc1)(c1ccccc1)C(C)CN(C)C.Cl (centres undefined),232